Test results as given in publication PMC8864165, “Functional Effects of ARV-1502 Analogs Against Bacterial Hsp70 and Implications for Antimicrobial Activity” (Frontiers in Chemistry, 2022).

Tested on: S. aureus DSM 6247
Conditions: 25% MHB2, 7.5 × 10^6 cfu/mL, 37°C, 20 h
Description: Minimal inhibitory concentrations (MICs) were determined using a liquid broth micro dilution assay in sterile 96-well plates (polystyrene F-bottom, Greiner Bio-One GmbH) and a total volume of 100 μL per well. […] After an incubation period of 4 h (37°C, 200 rpm), cells were diluted to 1.5 × 10^7 cfu/mL, based on a McFarland test, and 50 μL were added to each well (final concentration of 7.5 × 10^6 cfu/mL per well). […] The MIC was defined as the lowest peptide concentration preventing visible bacterial growth.

**Q.** With `CC(C)C[C@H](NC(=O)[C@H](Cc1ccc(O)cc1)NC(=O)[C@@H]1CCCN1C(=O)[C@H](CCCNC(=N)N)NC(=O)[C@@H]1CCCN1C(=O)[C@H](Cc1ccccc1)NC(=O)[C@H](Cc1ccccc1)NC(=O)[C@@H]1CCCN1C(=O)[C@H](CCCNC(=N)N)NC(=O)C1(N)CCCCC1)C(=O)N[C@@H](CO)C(=O)N[C@@H](CCCNC(=N)N)C(=O)N1CCC[C@H]1C(=O)N[C@@H](CCCNC(=N)N)C(=O)N1CCC[C@H]1C(=O)N1CCC[C@H]1C(=O)N[C@@H](CCCNC(=N)N)C(=O)N1CCC[C@H]1C(=O)N[C@H](C(=O)N[C@@H](CCCNC(=N)N)C(N)=O)C(C)C` [compound 99] as the molecule, how does the “MIC, S. aureus DSM 6247” value read?
**A.** The value was ≤ 16 µg/mL.
